Two compounds from US9187435B2, “Bridged Spiro[2.4]heptane ester derivatives” (Actelion Pharmaceuticals Ltd., priority 2010, dated 2015) can be followed below.

This assay deals with T1, human ALX receptor (Homo sapiens, UniProt P25090).
T1 construct: expressed in transfected cells; host or cells: HEK293 (HEK293-hALXR-Gα16)
T1 sequence (P25090 1-351): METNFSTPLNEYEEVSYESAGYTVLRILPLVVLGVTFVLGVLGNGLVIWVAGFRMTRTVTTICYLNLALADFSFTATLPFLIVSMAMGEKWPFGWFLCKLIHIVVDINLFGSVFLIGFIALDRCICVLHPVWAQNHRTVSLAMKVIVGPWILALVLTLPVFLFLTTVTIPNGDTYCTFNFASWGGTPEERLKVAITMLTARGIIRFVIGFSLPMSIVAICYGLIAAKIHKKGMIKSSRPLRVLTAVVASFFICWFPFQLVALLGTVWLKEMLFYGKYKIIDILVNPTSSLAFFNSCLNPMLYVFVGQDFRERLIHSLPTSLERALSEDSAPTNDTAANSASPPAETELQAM
Kind of assay: Intracellular calcium measurements (FLIPR) in HEK293-hALXR-Gα16 cells, agonistic activity. The assay is classed as cell-based. The following applies: values normalized to WKYMVm 10 nM. Here is the method:
The ALX receptor and FPRL2 agonistic activities of the compounds of formula (I) are determined in accordance with the following experimental method.
Intracellular Calcium Measurements:
Cells expressing recombinant human ALX receptor and the G-protein Gα16 (HEK293-hALXR-Gα16) were grown to 80% confluency in Growing Medium (GM). Cells were detached from culture dishes with a cell dissociation buffer (Invitrogen, 13151-014), and collected by centrifugation at 1,000 rpm at rt for 5 min in Assay Buffer (AB) (equal parts of Hank's BSS (Gibco, 14065-049) and DMEM without Phenol Red (Gibco, 11880-028)). After 60 min incubation at 37° C. under 5% CO2 in AB supplemented with 1 μM Fluo-4 (AM) (Invitrogen, F14202), and 20 mM HEPES (Gibco, 15630-056), the cells were washed and resuspended in AB. They were then seeded onto 384-well FLIPR assay plates (Greiner, 781091) at 50,000 cells in 70 μl per well and sedimented by centrifugation at 1,000 rpm for 1 min. Stock solutions of test compounds were made up at a concentration of 10 mM in DMSO, and serially diluted in AB to concentrations required for activation dose response curves. WKYMVm (Phoenix Peptides) was used as a reference agonist. […] Changes in fluorescence were monitored before and after the addition of test compounds at lex=488 nm and lem=540 nm. […]
On the technique in general: A change in cytosolic calcium serves as a functional read-out for many receptors and channels.

In the case of `Cc1cc(CNC(=O)[C@H]2[C@H](C(=O)OC[C@@H]3CCNC[C@H]3F)[C@H]3CC[C@@H]2C32CC2)on1` (relative stereo) [Example 43, (1S,2R,3R,4R)-[(trans-3-Fluoro-piperidin-4-yl)methyl 2-(((3-methylisoxazol-5-yl)methyl)carbamoyl)spiro[bicyclo[2.2.1]heptane-7,1′-cyclopropane]-3-carboxylate]], the EC50 (as a rule, the concentration needed to bring the measured effect to its halfway point) turned out to be 7.6 nM.
For `Cc1cc(CNC(=O)[C@H]2[C@H](C(=O)OC[C@H]3CCNC[C@H]3F)[C@H]3CC[C@@H]2C32CC2)on1` (relative stereo) [Example 44, (1S,2R,3R,4R)-[(cis-3-Fluoro-piperidin-4-yl)methyl 2-(((3-methylisoxazol-5-yl)methyl)carbamoyl)spiro[bicyclo[2.2.1]heptane-7,1′-cyclopropane]-3-carboxylate]], the EC50 amounted to 8.1 nM.
